AlphaSeq binding of Ab-14 heavy chain variants to a spike HR2 peptide

From the AlphaSeq antibody data of Li et al. 2023 (doi:10.1038/s41467-023-39022-2), copy in the FLAb collection.

All variants were tested on one target, the spike HR2 peptide PDVDLGDISGINAS (SARS-CoV-2).

Each scFv is VH, three GGGGS repeats, VL, as in the parent Ab-14, and differs from it in the CDRs of the heavy chain only.
VH: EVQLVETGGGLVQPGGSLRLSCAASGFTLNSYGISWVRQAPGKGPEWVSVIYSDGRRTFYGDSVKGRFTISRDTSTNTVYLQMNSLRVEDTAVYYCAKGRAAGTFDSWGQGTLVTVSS
VL: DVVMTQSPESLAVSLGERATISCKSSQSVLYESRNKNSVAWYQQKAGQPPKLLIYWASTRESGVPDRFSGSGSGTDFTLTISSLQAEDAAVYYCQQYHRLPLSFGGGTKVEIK

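Designed CDR sequences, proposed from the first random library and measured here. Their group label is 14H_GP_Gibbs (GP: Gaussian process model; Gibbs: Gibbs sampling; a sequence that several methods proposed may carry one label only). In AlphaSeq, yeast of one mating type display the scFv and yeast of the other type display the target. The frequency of each diploid, read from paired DNA barcodes, reflects how well the two displayed proteins bind. The ratio of observed to expected reads was calibrated, replicate by replicate, on BCL2-family standards whose Kd was known from biolayer interferometry. The assay was run in six technical replicates.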

Variants are written as CDR1, CDR2 and CDR3 of the heavy chain (limits as in the source). Parent: GFTLNSYGIS, VIYSDGRRTFYGDSVK, GRAAGTFDS.
Affinities are written as log10 Kd with Kd in nM; a lower number is a better binder.
Where no diploid with the target was found in that replicate, the entry reads "ND": below detection, most likely a poor binder, though not proof of it.
The parent sequence was in this pool as ten entries: three were never detected, three once, and four in most replicates, with averages from 0.34 to 2.37.
Values of this round are not directly comparable with the first-round values of the same sequences.
In the paper, a design with two or fewer of six values counts as a poor binder.
Background: pairings of all heavy chain designs with three empty control strains gave a value in 1% of cases (median 2.08, 5th percentile 0.84). Values in that range, when seen in few replicates, are hard to tell from nonspecific mating. Also given: how often the same scFv was detected with the empty control strains, with their mean in brackets.

| # | CDR-H1 | CDR-H2 | CDR-H3 | replicates, log10 nM | control signals |
|---|---|---|---|---|---|
| 1 | GFSLNSYGIS | VIYSDGRRTFYGDAVK | GKTAGTFDN | 0.43 0.53 1.44 0.57 0.52 0.69 | 0/18 |
| 2 | GFTLNSYGIS | VIYSDGCRTFYIDSVK | GNAAGTFDS | 1.96 ND 1.07 1.15 ND ND | 2/18 (1.30) |
| 3 | GFELNSYGIS | VIYSDGWRTFYTDSVK | GRTAGTFDS | 0.79 1.74 0.69 0.80 0.41 0.72 | 0/18 |
| 4 | GFSLNSYGIS | VIYSDGRRTFYHDSVK | GEVAGTFDS | -0.11 0.01 0.37 -0.14 -0.09 0.31 | 0/18 |
| 5 | GFSLNSYGIS | VIYSDGKRTFYGDNVK | GQAAGTFDS | 0.75 0.28 0.53 0.16 0.27 0.43 | 1/18 (3.12) |
| 6 | GFTLESYGIS | VIYSDGRRTFYHDSVK | GNAAGTFDS | 1.90 1.52 0.81 1.20 1.18 0.77 | 1/18 (1.20) |
| 7 | MFDLNSYGIS | VIYSDGRRTFYIDSVK | GQAAGTFDV | -0.11 -0.08 0.04 0.01 0.35 0.04 | 1/18 (2.20) |
| 8 | GFSLNSYGIS | VIYSDGRRTFYQDSVK | GEAAGTFDA | -0.46 -0.58 0.05 0.11 -0.55 -0.70 | 0/18 |
| 9 | GFDLNSYGIS | VIYSDGRRTFYQDRVK | GREAGTFDD | 1.29 0.84 0.72 0.85 0.91 0.56 | 4/18 (2.75) |
| 10 | GFDLNTYGIS | VIYSDGRRTFYHDSVK | GEAAGTFDS | 1.48 ND ND ND ND 2.77 | 0/18 |
| 11 | GFELNSYGIS | VIYSDGRRTFYDDDVK | GRTAGTFDS | 1.27 0.15 0.81 0.85 -0.11 0.65 | 0/18 |
| 12 | EFNLNSYGIS | VIYSDGRRTFYGDSVK | GRQAGTFDS | ND ND ND ND ND ND | 0/18 |
| 13 | GFTLNSYGIS | VIYSDGQRTFYGDSVK | GQTAGTFDV | ND 0.51 0.06 0.62 0.37 ND | 0/18 |
| 14 | GFSLNNYGIS | VIYSDGRRTFYGDKVK | GRQAGTFDS | 1.46 ND 1.22 1.03 0.94 1.50 | 0/18 |
| 15 | GFSLNSYGIS | VIYSDGRRTFYADQVK | GKEAGTFDS | 0.20 -0.24 -0.54 -0.20 0.40 -0.05 | 0/18 |
| 16 | GFTLNSYGIS | VIYSDGRRTFYHDSVK | GKEAGTFDT | 1.26 0.73 1.25 0.34 0.59 0.84 | 0/18 |
| 17 | GFDLNSYGIS | VIYSDGKRTFYGDSVK | GKQAGTFDS | 0.45 -0.06 -0.48 0.07 -0.21 -0.24 | 0/18 |
| 18 | GFTLNSYGIS | VIYSDGRRTFYADHVK | GEAAGTFDK | 0.19 ND ND -0.54 ND ND | 0/18 |
| 19 | GFQLNEYGIS | VIYSDGRRTFYQDSVK | GRHAGTFDS | 1.29 0.62 0.48 0.39 0.01 1.01 | 0/18 |
| 20 | GFSLKSYGIS | VIYADGRRTFYGDNVK | GRAAGTFDS | -0.33 -0.96 -1.41 -1.43 -1.32 -0.76 | 0/18 |
| 21 | KFSLNNYGIS | VIYADGRRTFYGDSVK | GRTAGTFDS | -0.43 ND 0.37 -0.29 1.96 0.92 | 0/18 |
| 22 | GKNLNSYGIS | VIYSDGRRTFYGDQVK | GRTAGTFDS | ND 1.22 ND 1.90 ND 2.22 | 1/18 (2.36) |
| 23 | GFELNSYGIS | VIYSDGRRTAYGDAVK | GRTAGTFDS | 0.09 -0.29 -0.16 -0.22 0.39 -0.14 | 0/18 |
| 24 | GFVLNSYGIS | VIYSDGRRTFYADDVK | GNVAGTFDS | 0.87 0.25 0.74 0.47 1.60 0.23 | 1/18 (2.34) |
| 25 | KFKLNSYGIS | VIYSDGKRTFYGDSVK | GRTAGTFDS | ND ND ND ND 1.58 ND | 0/18 |
| 26 | GFDLNSYGIS | VIYSDGRRTFYGDSVK | GRNAGTFDK | 0.88 0.55 0.74 0.44 0.39 1.02 | 0/18 |
| 27 | GFQLNSYGIS | VIYSDGRRTFYGDNVK | GQEAGTFDS | ND 0.73 ND 1.30 2.90 0.71 | 0/18 |
| 28 | KFSLNEYGIS | VIYSDGRRTFYGDSVK | GSTAGTFDS | -0.54 -0.11 -0.32 0.21 0.19 0.28 | 0/18 |
| 29 | GFDLNSYGIS | VIYSDGWRTFYTDSVK | GRTAGTFDS | 0.92 0.38 0.80 0.32 0.58 0.32 | 0/18 |
| 30 | GFELNSYGIS | VIYSDGRRTFYGDDVK | GRQAGTFDS | 0.62 ND ND ND ND ND | 0/18 |
| 31 | GFDLNEYGIS | VIYSDGRRTFYGDQVK | GRTAGTFDK | -0.53 -0.61 -0.18 -0.31 -0.54 -0.46 | 1/18 (1.19) |
| 32 | QFDLNSYGIS | VIYSDGRRTFYADSVK | GNVAGTFDS | 0.16 -0.06 -0.16 0.03 0.15 0.04 | 1/18 (2.90) |
| 33 | GFSLNTYGIS | VIYSDGRRTAYGDSVK | GRAAGTFDS | 0.67 1.25 0.35 0.46 0.08 0.56 | 0/18 |
| 34 | GFELNSYGIS | VIYSDGRRTFYQDSVK | GEAAGTFDT | 1.10 0.98 0.87 0.26 1.43 0.93 | 0/18 |
| 35 | GFTLNSYGIS | VIYSDGRRTFYADDVK | GRAAGTFDT | 1.63 0.86 1.05 0.84 0.19 0.62 | 0/18 |
| 36 | GFELNEYGIS | VIYSDGRRTFYGDSVK | GKHAGTFDS | 0.18 0.00 -0.67 -0.24 0.00 0.17 | 0/18 |
| 37 | GFELNEYGIS | VIYSDGRRTMYMDSVK | GRTAGTFDS | 0.50 0.41 0.33 0.38 0.37 0.43 | 0/18 |
| 38 | GFTLKSYGIS | VIYSDGRRTFYGDSVK | GQTAGTFDL | ND ND 1.21 ND 2.74 ND | 0/18 |
| 39 | GFHLNTYGIS | VIYSDGRRTFYIDSVK | GQAAGTFDS | ND ND ND ND ND ND | 0/18 |
| 40 | GEDLNSYGIS | VIYSDGRRTFYADSVK | GRTAGTFDS | 1.26 0.87 0.16 0.95 1.01 0.96 | 0/18 |
| 41 | GFELNSYGIS | VIYADGRRTFYGDSVK | GHAAGTFDF | 0.86 0.52 0.41 0.28 0.39 0.29 | 0/18 |
| 42 | GFSLNAYGIS | VIYSDGRRTYYGDSVK | GRTAGTFDS | 1.04 1.05 0.97 1.02 1.10 1.13 | 0/18 |